Assay results published in patent publication US20210236664A1, “ALPHA PARTICLE FORMULATIONS FOR TREATMENT OF SOLID TUMORS” (The Johns Hopkins University, priority 2018, published 2021).

Source text: Partition coefficients will be as previously described with some minor modifications. Decristoforo, C., et al., 2008. Octanol and saline (pH=7.4) will be used to assess the […] of the proposed compounds. Briefly, the radiolabeled ^111In- and ^225Ac-labeled DOTA(GA)-alkyl chelates will be vortexed with octanol and saline then centrifuged to separate layers. Aliquots (3) from each layer will be removed and counted. The […] will be determined using the following equations:
Poct/saline=Log([activity]octanol/[activity]saline).
A greater than 95% purity was obtained following purification with a Seppak.

With “^111In-DOTA-octadecylamine [^111In-DOTA-ODA]” as the substance, how does the “Log Poct” value read?
The value was 1.78±0.02.
